{"sequences": {"note": "Chains of the proteins cited; added tags and fusions are not shown. Residues count along the entry.", "UniProt P02769, 25-607 limits assumed": "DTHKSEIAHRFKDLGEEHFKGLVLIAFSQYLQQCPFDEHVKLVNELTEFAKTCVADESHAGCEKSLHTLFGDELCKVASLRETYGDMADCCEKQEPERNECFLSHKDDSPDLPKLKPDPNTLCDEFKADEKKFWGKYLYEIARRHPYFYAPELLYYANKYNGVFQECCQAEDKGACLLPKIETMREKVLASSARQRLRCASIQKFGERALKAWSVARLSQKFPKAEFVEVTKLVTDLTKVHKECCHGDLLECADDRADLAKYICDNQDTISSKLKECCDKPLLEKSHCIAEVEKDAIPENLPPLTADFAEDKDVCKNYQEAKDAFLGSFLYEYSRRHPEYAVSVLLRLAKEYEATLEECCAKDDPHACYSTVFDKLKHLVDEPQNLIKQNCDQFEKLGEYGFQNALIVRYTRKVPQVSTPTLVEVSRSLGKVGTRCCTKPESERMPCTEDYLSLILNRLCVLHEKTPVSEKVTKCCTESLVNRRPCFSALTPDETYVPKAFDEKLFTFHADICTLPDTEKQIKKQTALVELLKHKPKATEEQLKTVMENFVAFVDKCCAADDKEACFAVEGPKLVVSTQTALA"}, "source": "patent US9629920B2", "molecular_target": "Bovine Serum Albumin (BSA) (Bos taurus, UniProt P02769)", "assay": "Fentanyl binding to BSA by two-compartment equilibrium dialysis", "note": "Values joined by “and” are separate entries in the source; they are usually repeats but may differ in a detail not shown here. Equal entries are not always repeated. This is a selection: effects in other tests are not listed, and their absence says nothing."}
{"smiles": "CCC(=O)N(c1ccccc1)C1CCN(CCc2ccccc2)CC1", "values": [{"measurement": "Binding Preference A/B", "setting": "Control (no BSA)", "result": 0.95}, {"measurement": "Fentanyl concentration, compartment A", "setting": "Control (no BSA)", "result": 391, "unit": "µM"}, {"measurement": "Fentanyl concentration, compartment B", "setting": "Control (no BSA)", "result": 410, "unit": "µM"}, {"measurement": "Fentanyl concentration, compartment A", "setting": "compartment A with 95 mg/ml BSA, 0.78 mM fentanyl start, 25 mM phosphate buffer pH 7, four-day equilibrium, room temperature", "result": "639 µM and 552 µM and 544 µM"}, {"measurement": "Fentanyl concentration, compartment B", "setting": "compartment B, buffer only (0 mg/ml BSA), opposite compartment has 95 mg/ml BSA, four-day equilibrium", "result": "145 µM and 225 µM and 136 µM"}, {"measurement": "Binding Preference A/B", "setting": "ratio of fentanyl in compartment A (95 mg/ml BSA) to compartment B", "result": "4.4 and 2.45 and 4.0"}, {"measurement": "Binding of fentanyl to BSA protein (in words)", "setting": "three separate determinations", "result": "shown to bind to BSA protein"}]}
